Results on two compounds are retold here after article PMC5974090, “A fluorescence anisotropy assay to discover and characterize ligands targeting the maytansine site of tubulin” (Nature Communications, 2018).

By UniProt entry, the sequences of proteins in these tests, tags left out.
UniProt Q6B856, whole entry: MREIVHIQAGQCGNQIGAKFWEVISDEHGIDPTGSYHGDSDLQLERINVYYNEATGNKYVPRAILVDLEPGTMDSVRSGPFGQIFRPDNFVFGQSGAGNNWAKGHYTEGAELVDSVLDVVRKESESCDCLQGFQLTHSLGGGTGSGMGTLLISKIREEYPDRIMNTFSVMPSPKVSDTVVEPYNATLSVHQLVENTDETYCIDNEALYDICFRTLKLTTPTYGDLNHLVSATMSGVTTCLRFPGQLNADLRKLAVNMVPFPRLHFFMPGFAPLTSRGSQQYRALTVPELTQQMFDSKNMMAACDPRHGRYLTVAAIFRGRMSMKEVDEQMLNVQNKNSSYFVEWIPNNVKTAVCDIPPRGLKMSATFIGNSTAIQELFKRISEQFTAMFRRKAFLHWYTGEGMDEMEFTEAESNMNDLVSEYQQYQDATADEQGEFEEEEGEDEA
UniProt P81947, whole entry partner: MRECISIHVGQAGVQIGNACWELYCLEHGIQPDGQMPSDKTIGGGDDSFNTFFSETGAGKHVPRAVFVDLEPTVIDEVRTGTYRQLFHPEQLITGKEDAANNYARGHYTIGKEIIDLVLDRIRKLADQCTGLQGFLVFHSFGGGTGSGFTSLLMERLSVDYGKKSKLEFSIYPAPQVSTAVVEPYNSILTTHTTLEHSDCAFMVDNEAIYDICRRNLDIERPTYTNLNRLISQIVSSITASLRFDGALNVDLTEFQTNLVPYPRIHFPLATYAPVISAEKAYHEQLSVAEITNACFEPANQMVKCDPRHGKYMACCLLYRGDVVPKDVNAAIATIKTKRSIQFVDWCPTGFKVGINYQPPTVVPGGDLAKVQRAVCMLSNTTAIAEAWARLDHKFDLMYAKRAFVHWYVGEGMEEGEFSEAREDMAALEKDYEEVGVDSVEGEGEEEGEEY

The nature of data set [1]: Interconversion of the C9'-diastereoisomers of M9 in phosphate buffer. In kind it is physicochemical. The note with it: phosphate buffer pH 7.2. The method, then: The DM1-lysine conjugate M9 (Fig. 3c) was prepared from DM1 according to literature procedures[22] (for details, see Supplementary Information). The reaction produced two high-performance liquid chromatography (HPLC)-separable, but slowly interconverting, C9’-diastereoisomers (designated as M9A and M9B) in an approximately 1:1 ratio, with full equilibration in phosphate buffer pH 7.2 being observed after 24 h. […] The method used to prepare M9 inevitably leads to two diastereoisomeric products, due to the formation of an additional stereocenter at C9’ in the 1,4-addition of DM1 to the maleimido part of the linker precursor and the inherently non-selective nature of the reaction. However, the interconversion rate between M9A and M9B is sufficiently slow to allow the separate assessment of their tubulin-binding affinities.

Data set [2] concerns the target maytansine site of tubulin (Bos taurus, UniProt Q6B856). To be noted: read-out: Kd from FcMaytansine displacement; 10 nM FcMaytansine, 4 nM tubulin, 25 °C, mean ± SEM; n = 3.

`COc1cc2cc(c1Cl)N(C)C(=O)C[C@H](OC(=O)[C@H](C)N(C)C(=O)CCSC1CC(=O)N(C[C@H]3CC[C@H](C(=O)NCCCC[C@H](N)C(=O)O)CC3)C1=O)[C@]1(C)O[C@H]1[C@H](C)[C@@H]1C[C@@](O)(NC(=O)O1)[C@H](OC)/C=C/C=C(\C)C2` (single isomer, unassigned) [M9B]: in data set [1], the “time to full equilibration of the interconverting diastereoisomers” value was found to be 24 h. Moreover, the Kd in data set [2] is 17.5 nM.
The corresponding values for `COc1cc2cc(c1Cl)N(C)C(=O)C[C@H](OC(=O)[C@H](C)N(C)C(=O)CCSC1CC(=O)N(C[C@H]3CC[C@H](C(=O)NCCCC[C@H](N)C(=O)O)CC3)C1=O)[C@]1(C)O[C@H]1[C@H](C)[C@@H]1C[C@@](O)(NC(=O)O1)[C@H](OC)/C=C/C=C(\C)C2` (single isomer, unassigned) [M9A] are 24 h and 12.6 nM.
